ARFGAP1 inhibitor – inhibits rat ARF GTPase activating protein 1. Q62848. Arfgap1-stimulated ARF1 GTP hydrolysis, GDP FP detection. inhibition, % at 16.5 µM. 360,000 compounds, 0.26% hits;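 active means inhibition above a per-plate limit, mean inhibition of low control wells plus 3 SD, cut at about 25% in these data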
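Assay system: purified rat His6-Arfgap1 residues 1-136 (GAP domain); Reagent: human Δ17 ARF1 bound to GTP; Dosing: 16.5 µM single point, 1.26% DMSO; Times: GTP hydrolysis reaction 2 h at 25 °C; Signal: FP, GDP Alexa 633 tracer displaced from anti-GDP antibody, 620/688 nm; Measure: % inhibition from polarization.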
MC4R ag barr – agonists of human melanocortin 4 receptor (MC4R) beta-arrestin. P32245. U2OS MC4R beta-arrestin complementation, luminescence; percent of melanotan II response, DMSO zero. activation, % at 8.9 µM. 360,000 compounds, 0.98% hits;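 active means activation above a per-plate cutoff, the mean activation of sample wells on that plate plus 3 SD, cut at about 8% in these data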
MC4R antagonist – human MC4R antagonism in cAMP assay; P32245; MC4R-expressing cells, MTII-stimulated cAMP, LANCE TR-FRET; inhibition, % at 6.5 µM; 360,000 compounds, 0.48% hits; AID 540295;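 active means inhibition above its plate's cutoff, the mean of tested wells on that plate plus 3 SD, cut at about 29% in these data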
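material = U2OS cells stably expressing human melanocortin 4 receptor (MC4R) | also added = Melanotan II challenge | dosing = single nominal compound dose of 6.5 µM | detection = TR-FRET with Eu-cAMP and labeled anti-cAMP, 671 nm | replication = singlicate | timing = compound 30 min, challenge 1 h, detection 1 h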
NRP1-CendR mod – alters CendR peptide binding to human NRP-1; inhibition, % at 25 µM; 360,000 compounds, 0.85% hits; FAM-RPARPAR peptide binding to NRP-1, fluorescence polarization;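 active means inhibition or corrected inhibition above about 18%, plus a signal ratio from 0.5 to 1.5, limit read from the data, passing the limit was not always enough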
ASAP1 inh – ASAP1 ArfGAP inhibition; 360,000 compounds, 0.19% hits; Q9ULH1; ASAP1-stimulated ARF1 GTP hydrolysis, GDP FP detection; inhibition, % at 16.5 µM; in the data active means inhibition above about 25%
Yeast UUG start – modulators of yeast start codon fidelity, primary screen, whole organism, S. cerevisiae, single point, plate reader | AID 602363, 2012 | S. cerevisiae UUG-firefly luciferase reporter, luminescence/redox ratio | activity score, % at 18.7 µM | hit rate 0.13% among 350,000;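 active = replicate mean at a twofold rise or more, about +100% in these data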;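 also: firefly luciferase made from a UUG start codon reports start codon fidelity; reporter light over untreated wells divided by growth signal over untreated wells; some hits fall short of that in this replicate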
Of the large screens only hits and unclear results are named; the others gave an inactive call. An excerpt weighted towards active compounds, which were near 2.3% of everything screened.

C[C@@H]1CN([C@H](C)CO)S(=O)(=O)c2ccc(-c3ccccc3F)cc2O[C@@H]1CN(C)C(=O)C1CC1	none (no result: ARFGAP1 inhibitor, MC4R ag barr, MC4R antagonist, NRP1-CendR mod, ASAP1 inh)
COC(=O)c1ccc(NC(=S)NCCC2=CCCCC2)cc1	none
COc1cc(C(=O)OCC(=O)NCCC2=CCCCC2)cc(OC)c1OC	none
O=C(COC(=O)Cc1ccc(Cl)cc1Cl)NCCC1=CCCCC1	none (no result: Yeast UUG start)
COc1cc(C(=O)OCC(=O)NCCC2=CCCCC2)ccc1OCC(C)C	MC4R ag barr 9.2 (no result: Yeast UUG start)
O=C(COC(=O)c1cc(Cl)ccc1O)NCCC1=CCCCC1	NRP1-CendR mod 20
COC(=O)c1cccc(NC(=S)NCCC2=CCCCC2)c1	NRP1-CendR mod 36
CNc1nc(-c2ccc3c(c2)CCN3C(=O)c2ccccc2F)cs1	NRP1-CendR mod 24 (no result: Yeast UUG start)
CNc1nc(-c2ccc3c(c2)CCN3C(=O)c2ccccc2F)c(C)s1	none
O=C(CCCC(=O)NCC1CCCO1)NCC1CCCO1 (centres undefined)	NRP1-CendR mod 26
O=C(CN1CCCCCC1)NCC1CCCO1 (centres undefined)	none (no result: Yeast UUG start)
N/C(Cc1ccc(Cl)cc1)=N\OC(=O)c1ccc2ccccc2c1	MC4R ag barr 9.2
O=C(C[C@@H]1CC[C@@H](NS(=O)(=O)c2ccc(F)cc2)[C@@H](CO)O1)NCc1ccncn1	none (no result: ARFGAP1 inhibitor, MC4R ag barr, MC4R antagonist, NRP1-CendR mod, ASAP1 inh)
O=C(N/N=C/c1ccc(OC(=O)c2ccccc2Br)cc1)c1ccccn1	MC4R ag barr 8.9
CC(C)(C)c1ccc(/C=N/NC(=O)c2ccccn2)cc1	none (no result: Yeast UUG start)
Cc1cccc(C)c1OCCCN1CCCC1	none
c1ccc(OCCCCN2CCCCC2)cc1	none
Cc1cccc(C)c1OCCN1CCCC1	NRP1-CendR mod 28
c1ccc(OCCCN2CCCC2)cc1	NRP1-CendR mod 23
COc1ccc(N2C(=NC(=O)C(C)Oc3ccccc3)SC3CS(=O)(=O)CC32)cc1 (centres undefined)	NRP1-CendR mod 28
COc1ccc(NC(=O)N2CC[C@@H]3[C@@H](CO)N(C)c4ccc(-c5cccc(C(=O)N(C)C)c5)cc4[C@@H]32)cc1	none (no result: ARFGAP1 inhibitor, MC4R ag barr, MC4R antagonist, NRP1-CendR mod, ASAP1 inh)
Cc1cccc(S(=O)(=O)N[C@@H]2CC[C@H](CCNC(=O)CCN3CCCCC3)O[C@@H]2CO)c1	none (no result: ARFGAP1 inhibitor, MC4R ag barr, MC4R antagonist, NRP1-CendR mod, ASAP1 inh)
COc1cccc(-c2csc(N3CCN(CC(=O)NNC(=O)c4ccc(Cl)cc4)CC3)n2)c1	MC4R ag barr 8.8
COc1cccc(-c2csc(N3CCN(CC(=O)NNC(=O)c4ccc(Br)cc4)CC3)n2)c1	MC4R ag barr 10.0
C[C@@H]1CN([C@@H](C)CO)C(=O)c2cc(NC(=O)CCC(F)(F)F)ccc2O[C@@H]1CN(C)Cc1ccc(C(=O)O)cc1	none (no result: ARFGAP1 inhibitor, MC4R ag barr, MC4R antagonist, NRP1-CendR mod, ASAP1 inh)
O=C(CCN1CCCCC1)NCC[C@@H]1CC[C@@H](NC(=O)Nc2ccc(Cl)cc2)[C@H](CO)O1	none (no result: ARFGAP1 inhibitor, MC4R ag barr, MC4R antagonist, NRP1-CendR mod, ASAP1 inh)
O=C(O)c1ccc(N/N=C/C2=C(N3CCOCC3)C(=C\c3ccccc3)/CC2)cc1	MC4R antagonist 29
Cc1cc(C)nc(N/N=C/C2=C(N3CCOCC3)C(=C\c3ccc(Cl)cc3)/CC2)n1	none (no result: Yeast UUG start)
C[C@@H](C[C@@H](O)[C@H](O)C(C)(C)O)[C@@H]1CC[C@]2(C)C3=CC[C@H]4C(C)(C)C(=O)CC[C@]4(C)[C@H]3CC[C@@]12C	MC4R ag barr 9.4
CC(=O)N(C)C[C@H]1Oc2cc(C#CC(C)(C)O)ccc2S(=O)(=O)N([C@@H](C)CO)C[C@H]1C	none (no result: ARFGAP1 inhibitor, MC4R ag barr, MC4R antagonist, NRP1-CendR mod, ASAP1 inh)
CN(C)CCC(=O)c1ccc2c(c1)OCO2	MC4R antagonist 33
O=C(N/N=C/c1ccc(O)cc1)c1cc(-c2ccc3c(c2)OCO3)n[nH]1	ARFGAP1 inhibitor 26
O=C(N/N=C/c1ccccc1)c1cc(-c2ccc3c(c2)OCO3)n[nH]1	none
C[C@@H]1CN([C@@H](C)CO)C(=O)c2cc(NC(=O)C3CCCCC3)ccc2O[C@H]1CN(C)Cc1ccc(C(=O)O)cc1	none (no result: ARFGAP1 inhibitor, MC4R ag barr, MC4R antagonist, NRP1-CendR mod, ASAP1 inh)
COc1ccc(C(=O)OCC(=O)N2CCN(S(=O)(=O)c3ccc(C)cc3)CC2)cc1[N+](=O)[O-]	NRP1-CendR mod 26
COc1ccc(NC(=O)CSc2nccn2-c2ccccc2)c(OC)c1	NRP1-CendR mod 26
C[C@H](CO)N1C[C@H](C)[C@@H](CN(C)C(=O)c2cccc(F)c2)Oc2ncc(-c3ccccc3)cc2C1=O	none (no result: ARFGAP1 inhibitor, MC4R ag barr, MC4R antagonist, NRP1-CendR mod, ASAP1 inh)
Cc1ccc(C(=O)CCS(=O)(=O)c2ccc(Br)cc2)cc1	none
